# Ab-91 heavy chain CDR variants: yeast mating affinities

The target is the same throughout: PDVDLGDISGINAS, from the HR2 region of SARS-CoV-2 spike.

The variants keep the light chain, the linker and the frameworks of Ab-91 (scFv order VL, three GGGGS repeats, VH).
VL: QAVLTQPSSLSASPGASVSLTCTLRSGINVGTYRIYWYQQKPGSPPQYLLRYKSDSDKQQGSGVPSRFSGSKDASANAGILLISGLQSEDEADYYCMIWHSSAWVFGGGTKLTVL
VH: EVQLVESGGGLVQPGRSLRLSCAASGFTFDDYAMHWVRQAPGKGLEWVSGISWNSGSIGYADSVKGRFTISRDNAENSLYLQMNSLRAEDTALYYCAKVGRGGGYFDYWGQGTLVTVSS

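The parent was found by panning a naive human phage display library on the peptide. Library AAYL51 holds single substitutions and randomly drawn double and triple substitutions in the CDRs. The assay is AlphaSeq: two haploid yeast populations carry antibody and antigen on their surface. Mating (16 h, 30 °C) was followed by selection of diploids and sequencing of their barcodes. The ratio of observed to expected reads was calibrated, replicate by replicate, on BCL2-family standards whose Kd was known from biolayer interferometry. Each pool was mated in three replicate cultures.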

Substitutions are numbered in sequence along the VH above, starting at 1 (not Kabat). Every variant below is changed at F27 of the VH (sequential numbering). Values are log10 of the apparent Kd in nM; lower means stronger binding. Replicates are averaged; those with no signal do not enter the mean. "nd" means that the variant was in the library but no mating with the target was seen in any replicate; the authors take this as a sign of poor binding, and no number exists. Order: sorted from the lowest average up, undetected variants last. As a blank, each scFv also met three strains without target: over library AAYL51, 21% of these pairings were detected, typically at 4.54 and seldom below 3.26. In this assay the parent's reference entry averaged 1.86; its copy inside this library read 0.88.

With F27W T28C S63A the result was 0.64 (3 of 3 replicates).
With F27T D30A K65L the result was 2.90 (3 of 3 replicates).
With F27N R101E Y108C the result was 2.99 (1 of 3 replicates).
With F27V G104A the result was 3.20 (1 of 3 replicates).
With F27T Y32F G56A the result was 3.24 (3 of 3 replicates).
With F27V F29I H35E the result was 3.58 (1 of 3 replicates).
With F27L R101F the result was 3.59 (3 of 3 replicates).
With F27D N54K S55T the result was 3.71 (1 of 3 replicates).
With F27C S63R Y105K the result was 3.77 (2 of 3 replicates).
With F27L I58R D107K the result was 3.77 (1 of 3 replicates).
With F27Q T28P S55R the result was 3.94 (1 of 3 replicates).
With F27M G56Q V99Y the result was 4.09 (1 of 3 replicates).
With F27D D30S Y105I the result was 4.40 (2 of 3 replicates).
With F27K S55D F106V the result was 4.44 (2 of 3 replicates).
With F27L T28H A33P the result was 4.53 (1 of 3 replicates).
With F27W M34N W53T the result was 4.55 (1 of 3 replicates).
With F27Q H35V G50N the result was 4.59 (1 of 3 replicates).
With F27K G56V V99Y the result was 4.62 (1 of 3 replicates).
With F27P Y60P V99T the result was 4.62 (3 of 3 replicates).
With F27A D30Y V99D the result was 4.66 (2 of 3 replicates).
With F27D S52C D107M the result was 4.84 (2 of 3 replicates).
With F27I S57Y V99Q the result was 5.20 (2 of 3 replicates).
With F27R W53T D62A the result was 5.24 (2 of 3 replicates).
With F27P H35K G100V the result was 5.33 (3 of 3 replicates).
With F27Q R101W G104Y the result was 5.38 (3 of 3 replicates).
With F27N G100M the result was 5.74 (2 of 3 replicates).
With F27K F29A G100I the result was 6.33 (1 of 3 replicates).
With F27S F106W the result was nd (0 of 3 replicates).
With F27M G59V G104A the result was nd (0 of 3 replicates).
With F27W Y32P M34V the result was nd (0 of 3 replicates).
With F27L G50W V64D the result was nd (0 of 3 replicates).
With F27C V99Y Y105L the result was nd (0 of 3 replicates).
With G26N F27I S52L the result was nd (0 of 3 replicates).
With F27E W53V Y60V the result was nd (0 of 3 replicates).
With F27N N54Q F106H the result was nd (0 of 3 replicates).
With F27E I51T I58Y the result was nd (0 of 3 replicates).
With F27Y S52E the result was nd (0 of 3 replicates).
With F27V D31W G56I the result was nd (0 of 3 replicates).
With F27W W53I F106Y the result was nd (0 of 3 replicates).
With F27V H35N W53Y the result was nd (0 of 3 replicates).
With F27Q V99N R101E the result was nd (0 of 3 replicates).
With F27V F29K G100I the result was nd (0 of 3 replicates).
With F27C I51N A61M the result was nd (0 of 3 replicates).
With F27A Y60E A61S the result was nd (0 of 3 replicates).
With G26R F27T V99E the result was nd (0 of 3 replicates).
With F27I G103M the result was nd (0 of 3 replicates).

For reference, 5 entries of the list once more:

{"changes": "F27E W53V Y60V", "mean log10 Kd (nM)": "nd", "detected": "0/3"}
{"changes": "F27K S55D F106V", "mean log10 Kd (nM)": "4.44", "detected": "2/3"}
{"changes": "F27W Y32P M34V", "mean log10 Kd (nM)": "nd", "detected": "0/3"}
{"changes": "F27L T28H A33P", "mean log10 Kd (nM)": "4.53", "detected": "1/3"}
{"changes": "F27N N54Q F106H", "mean log10 Kd (nM)": "nd", "detected": "0/3"}

Values reported by Engelhart et al. 2022, doi:10.1038/s41597-022-01779-4 (FLAb copy).